Assay results as given in US20240190916A1, “NOVEL PEPTIDE” (HYSENSBIO, priority 2022, published 2024).

Tested on: human dental pulp cells (hDPCs) transplanted into the subcutaneous tissue of mice with impaired immune systems
Test: In vivo transplantation of hDPCs with HA/TCP and histological analysis
Conditions: 12 weeks after transplantation, FIG. 5
Procedure: Human dental pulp cells (hDPCs) were isolated and used for in vivo transplantation experiments. hDPCs (2×10^6 cells) were mixed with 100 mg of hydroxy apatite/tricalcium phosphate (HA/TCP) ceramic powder (Zimmer, USA) alone or along with peptides (10 μg) or 0.5% fibrin gel, and then transplanted into mice (NIH-bg-nu-xid; Harlan Laboratories, Indianapolis, IN) with damaged immune systems for 6 and 12 weeks. Thereafter, samples were harvested, fixed in 4% paraformaldehyde, decalcified in 10% EDTA (pH 7.4), embedded in paraffin, and stained with hematoxylin-eosin (H-E) (Vector Labs).

B1: BMP2: positive control BMP2 in the hDPC transplantation experiment (protein, UniProt P12643 283-396, looked up)
Bone morphogenetic protein 2: QAKHKQRKRLKSSCKRHPLYVDFSDVGWNDWIVAPPGYHAFYCHGECPFPLADHLNSTNHAIVQTLVNSVNSKIPKACCVPTELSAISMLYLDENEKVVLKNYQDMVVEGCGCR
hard tissue (bone/cementum-like tissue) formation, hematoxylin-eosin histology: a bone/cementum-like tissue incorporating cells into matrix of a newly formed calcified tissue
